Sequences of proteins named here, by UniProt entry; tags and fusion partners are left off.
UniProt P21554, whole entry: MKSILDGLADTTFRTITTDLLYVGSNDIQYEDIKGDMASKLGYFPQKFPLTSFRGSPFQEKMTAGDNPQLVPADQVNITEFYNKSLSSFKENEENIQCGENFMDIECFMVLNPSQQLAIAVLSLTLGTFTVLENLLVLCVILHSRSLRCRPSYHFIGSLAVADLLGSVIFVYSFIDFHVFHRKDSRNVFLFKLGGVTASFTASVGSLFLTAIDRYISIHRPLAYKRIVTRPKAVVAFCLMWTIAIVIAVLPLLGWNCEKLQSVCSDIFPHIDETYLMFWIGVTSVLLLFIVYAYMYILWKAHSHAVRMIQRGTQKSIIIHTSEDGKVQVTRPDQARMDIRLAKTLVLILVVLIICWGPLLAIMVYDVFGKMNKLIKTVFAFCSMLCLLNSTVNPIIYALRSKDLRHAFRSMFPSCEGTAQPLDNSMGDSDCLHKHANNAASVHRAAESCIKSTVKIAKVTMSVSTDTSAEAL

According to ChEMBL document CHEMBL4152361, “Synthesis of oxidative metabolites of CRA13 and their analogs: Identification of CRA13 active metabolites and analogs thereof with selective CB2R affinity” (Bioorg Med Chem, 2018):

Target: Cannabinoid receptor 1 (Homo sapiens, UniProt P21554)
Experiment: Displacement of [3H]SR141716A from membrane bound human CB1 receptor after 1 hr by beta scintillation counting method

In the case of `CCCCCOc1ccc(C(=O)c2cccc3ccccc23)c2ccccc12`, the IC50 is reported as 1.58 µM.
